Amino acid sequences for entries named in this document (tags omitted). A change or cut given only in a name is not applied to a line headed by its entry. Residues count along the entry.
UniProt P14416, whole entry: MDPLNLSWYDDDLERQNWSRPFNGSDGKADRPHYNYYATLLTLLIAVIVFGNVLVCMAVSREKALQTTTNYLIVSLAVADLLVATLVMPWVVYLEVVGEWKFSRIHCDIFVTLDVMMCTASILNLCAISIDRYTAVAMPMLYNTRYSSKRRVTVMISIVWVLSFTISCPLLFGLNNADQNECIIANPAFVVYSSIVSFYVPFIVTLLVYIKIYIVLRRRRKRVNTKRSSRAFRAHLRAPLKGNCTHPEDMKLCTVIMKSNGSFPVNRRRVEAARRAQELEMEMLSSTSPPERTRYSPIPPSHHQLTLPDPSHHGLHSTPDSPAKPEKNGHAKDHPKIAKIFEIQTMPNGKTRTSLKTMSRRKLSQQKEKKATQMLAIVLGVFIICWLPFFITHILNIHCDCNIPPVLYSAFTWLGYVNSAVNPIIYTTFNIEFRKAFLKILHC
UniProt P14416, 1-414 isoform P14416-2: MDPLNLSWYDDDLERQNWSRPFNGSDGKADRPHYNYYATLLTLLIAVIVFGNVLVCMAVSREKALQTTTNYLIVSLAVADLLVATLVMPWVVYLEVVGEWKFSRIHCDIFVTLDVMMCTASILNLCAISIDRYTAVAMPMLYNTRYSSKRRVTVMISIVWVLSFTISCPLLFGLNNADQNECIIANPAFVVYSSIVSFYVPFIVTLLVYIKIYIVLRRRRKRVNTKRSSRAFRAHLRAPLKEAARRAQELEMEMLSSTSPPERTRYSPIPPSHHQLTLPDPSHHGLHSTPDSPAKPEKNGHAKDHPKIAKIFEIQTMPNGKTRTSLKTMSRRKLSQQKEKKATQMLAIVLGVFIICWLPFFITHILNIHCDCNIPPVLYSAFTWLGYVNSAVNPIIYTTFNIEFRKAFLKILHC
UniProt P35462, whole entry: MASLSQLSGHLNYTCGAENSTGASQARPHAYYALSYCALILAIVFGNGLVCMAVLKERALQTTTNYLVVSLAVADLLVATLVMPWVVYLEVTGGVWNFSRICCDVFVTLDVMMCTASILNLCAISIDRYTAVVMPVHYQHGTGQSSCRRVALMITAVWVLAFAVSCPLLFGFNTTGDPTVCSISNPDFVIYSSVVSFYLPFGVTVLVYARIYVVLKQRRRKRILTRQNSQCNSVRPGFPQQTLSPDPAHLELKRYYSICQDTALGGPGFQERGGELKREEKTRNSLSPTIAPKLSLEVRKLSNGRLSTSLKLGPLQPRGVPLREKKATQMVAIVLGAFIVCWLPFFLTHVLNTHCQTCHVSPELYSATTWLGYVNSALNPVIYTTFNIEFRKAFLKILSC

In PMC5018964, “Visualization and ligand-induced modulation of dopamine receptor dimerization at the single molecule level” (Scientific Reports, 2016):

Key:
human D2L = target: T1, human D2L (Homo sapiens, UniProt P14416); test: [3H]spiperone competition/saturation binding, membranes of CHO cells expressing human D2L; conditions: [³H]spiperone competition, CHO cell membranes; read-out: Ki ± s.d. hD2L
T1 construct: expressed in transfected cells

human D2S = target: T2, human D2S (Homo sapiens, UniProt P14416); test: [3H]spiperone competition/saturation binding, membranes of CHO cells expressing human D2S; conditions: [³H]spiperone competition, CHO cell membranes; read-out: Ki ± s.d. hD2S
T2 construct: expressed in transfected cells

SNAP-D2L receptor = target: T3, SNAP-D2L receptor (Homo sapiens, UniProt P14416); test: Single-molecule TIRF-M of SNAP-D2L receptors in CHO cells with ligands (dimerization, mobility, colocalization); format: cell-based; conditions: Alexa546-labeled SNAP-D2L in CHO cells incubated with ligand
T3 construct: expressed in transfected cells

human D3 = human D3 (Homo sapiens, UniProt P35462); test: [3H]spiperone competition/saturation binding, membranes of CHO cells expressing human D3; conditions: read-out: Ki ± s.d. hD3; [³H]spiperone competition, CHO cell membranes

CCCN(CCC)[C@H]1CCc2c(O)cccc2C1 [S-(–)-5-OH-DPAT, reference compound]
Ki (human D2L): 8.6 ± 6.5 nM
Ki (human D2S): 7.1 ± 2 nM
effect on monomer/dimer ratio and mobility of the SNAP-D2L receptor compared to ligand-free conditions (SNAP-D2L receptor): increase of receptor dimerization and mobility
Ki (human D3): 1.3 ± 0.4 nM
